## Ab-14 light chain CDR variants: yeast mating affinities

Data: MIT Lincoln Laboratory AlphaSeq set, Li et al. 2023, doi:10.1038/s41467-023-39022-2, as distributed in FLAb.

All variants were tested on one target, the spike HR2 peptide PDVDLGDISGINAS (SARS-CoV-2).

Each scFv is VH, three GGGGS repeats, VL, as in the parent Ab-14, and differs from it in the CDRs of the light chain only.
VH: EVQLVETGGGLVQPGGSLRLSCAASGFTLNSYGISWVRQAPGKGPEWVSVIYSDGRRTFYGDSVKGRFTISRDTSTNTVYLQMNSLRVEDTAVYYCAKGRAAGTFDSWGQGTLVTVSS
VL: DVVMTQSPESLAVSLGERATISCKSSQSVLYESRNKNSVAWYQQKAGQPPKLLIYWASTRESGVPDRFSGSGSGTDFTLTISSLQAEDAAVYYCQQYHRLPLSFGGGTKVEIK

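The starting antibody came from a phage panning campaign against this peptide. Designed CDR sequences, proposed from the first random library and measured here. Their group label is 14L_GP_Gibbs (GP: Gaussian process model; Gibbs: Gibbs sampling; a sequence that several methods proposed may carry one label only). In AlphaSeq, yeast of one mating type display the scFv and yeast of the other type display the target. Binding brings cells together so that they mate, and sequencing counts the barcode pairs among the diploids. The ratio of observed to expected reads was calibrated, replicate by replicate, on BCL2-family standards whose Kd was known from biolayer interferometry. Mating was done six times.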

The parent's light chain CDRs are KSSQSVLYESRNKNSVA, WASTRES, QQYHRLPLS; each variant's own CDRs replace them letter for letter.
Affinities are written as log10 Kd with Kd in nM; a lower number is a better binder.
A pair that was not seen in that replicate is written "n.d."; this usually means weak binding, but a binder can also be missed.
The authors averaged sequences with at least three values out of six and counted those with two or fewer as poor binders.
The range of this assay differs from that of the first round, and the authors advise against merging the two.
Of ten entries with the parent sequence, four were seen in most replicates (averages 0.34 to 2.37), three in one and three in none, so single entries are noisy.
Background: pairings of all light chain designs with three empty control strains gave a value in 4% of cases (median 2.64, 5th percentile 1.59). Values in that range, when seen in few replicates, are hard to tell from nonspecific mating. For each scFv, signals with the empty controls are counted beside the result, with their mean in brackets.

CDR-L1	CDR-L2	CDR-L3	replicates, log10 nM	empty controls
LQSQSELLESRNHNSVA	HASTRMD	QQYHRLPLS	1.43 / n.d. / 1.62 / 1.90 / 2.18 / 1.43	0 of 18
KLSQGDWYQSRMDNSVA	DASTRES	QQYHRLPLS	0.07 / -0.26 / -0.28 / -0.20 / -0.12 / 0.09	1 of 18 (3.57)
KVSSAFLYEDRNKNSVA	QASQRES	QQYHRLPLS	0.01 / -0.15 / -0.25 / -0.19 / -0.08 / -0.08	3 of 18 (3.24)
KAQQSELYEKRNQNSVA	SASQRLS	QQYHRLPLS	0.19 / 0.17 / 0.54 / 0.26 / 0.32 / 0.27	0 of 18
KVSMSVNYLQRNKNSVA	QASQRES	QQYHRLPLS	-0.41 / -0.72 / -0.66 / -0.82 / -0.94 / -0.60	0 of 18
KVEQSVMMGSRNKNSVA	HASQREQ	QQYHRLPLS	0.25 / 0.10 / 0.15 / 0.00 / 0.44 / 0.56	2 of 18 (2.52)
KMSQSVLMGGRNDNSVA	SASTRCS	QQYHRLPLS	0.27 / 0.38 / -0.42 / -0.02 / -0.33 / 0.22	0 of 18
KLSQSMLYESRNDNSVA	QASTRES	QDYHRLPLM	0.51 / 0.23 / 0.58 / 0.00 / 0.37 / 0.51	1 of 18 (3.32)
KFEQLDGYEQRNKNSVA	NASQRED	QQYHRLPLS	0.17 / 0.13 / 0.11 / 0.00 / -0.08 / -0.12	0 of 18
KISQAYLYESRNKNSVA	QANYRES	QQYHRLPLS	-0.06 / -0.13 / -0.16 / -0.31 / -0.05 / -0.08	1 of 18 (3.54)
KLQQSWMMQWRNKNSVA	HASTRLS	QQYHRLPLS	1.04 / 0.71 / 0.44 / 1.05 / 0.68 / 1.00	2 of 18 (1.82)
KMPQSWWYESRNKQSVA	NASERES	QQYHRLPLS	0.31 / 0.20 / 0.20 / -0.14 / -0.02 / 0.35	1 of 18 (3.01)
KSSGSVMGEDMNKNSVA	HASKRES	QQYHRLPLS	0.46 / 0.42 / 0.38 / 0.28 / 0.58 / 0.64	1 of 18 (2.80)
KQSFMVMEGSRNKNSVA	EASLREE	QQYHRLPLS	0.51 / 0.34 / 0.26 / 0.20 / 0.61 / 0.63	0 of 18
KLMYSAEYEQRNKNSVA	EASTRES	QQYHRLPLS	0.20 / -0.10 / -0.19 / -0.27 / -0.23 / 0.15	1 of 18 (2.39)
HLYQSELYESRMKNSVA	NASTRLS	QQYHRLPLS	0.30 / -0.11 / -0.08 / -0.10 / 0.01 / 0.08	2 of 18 (3.14)
KLSQSQEYESRNKNSVA	NASTRLT	QQYHRLPLS	0.16 / 0.23 / 0.11 / 0.02 / -0.09 / 0.18	0 of 18
HSSPSVLYEDRNKNSVA	NASTRER	QQYHRLPLS	-0.28 / -0.18 / -0.10 / -0.16 / -0.02 / 0.13	1 of 18 (2.17)
KIQQSMLYESRNKNSVA	NASTRME	QQYHRLPLM	0.46 / 0.32 / 0.31 / 0.14 / 0.34 / 0.26	1 of 18 (3.59)
KSSQAELYESRQKNSVA	NASYRED	QQYHRLPLS	0.24 / 0.14 / 0.04 / -0.03 / -0.08 / -0.02	1 of 18 (3.16)
KFQQSELYEKRNQNSVA	SASQRLS	QQYHRLPLS	-0.05 / 0.25 / 0.02 / -0.07 / -0.02 / -0.03	0 of 18
KVPGSNDYESRNKNSVA	EASTRES	QDYHRLPLS	0.74 / 0.91 / 1.35 / 1.12 / 0.51 / 0.93	0 of 18
KESQSEPYESRNKNSVA	NASYRMS	QQYHRLPLS	0.32 / 0.11 / 0.39 / 0.02 / 0.22 / 0.34	1 of 18 (3.29)
KFSQSVCYEDRVKNSVA	NASDRMS	QQYHRLPLS	1.19 / 0.88 / 0.97 / 0.65 / 0.59 / 0.68	2 of 18 (3.01)
HMYQSGLYESRNKNSVA	SASQRES	QQYHRLPLS	0.96 / 0.96 / 0.87 / 0.56 / 1.07 / 1.18	0 of 18
KLDMYYWLESRNKNSVA	QASTREW	QQYHRLPLS	0.81 / 0.21 / 0.48 / 0.35 / 0.17 / 0.56	0 of 18
MYSQSYLGEQRNKNSVA	HASTREE	QQYHRLPLS	0.21 / 0.18 / 0.18 / -0.07 / -0.03 / 0.04	0 of 18
KWSQSHLYESRNWNAVA	EASQRPS	QQYHRLPLS	0.03 / 0.19 / 0.07 / 0.05 / 0.20 / 0.29	1 of 18 (2.28)
KFEGSHLYESRMGNSVA	NASQRED	QQYHRLPLS	-0.12 / -0.34 / -0.25 / -0.44 / -0.50 / -0.21	1 of 18 (2.71)
KLEPFEEEESRNKNSVA	SASTRES	QQYHRLPLS	-0.14 / 0.10 / -0.17 / -0.08 / -0.23 / -0.01	2 of 18 (2.38)
KVSGQQLYSSRNKNQVA	DASTRES	QQYHRLPLS	0.33 / 0.28 / 0.27 / 0.21 / 0.25 / 0.73	0 of 18
KLQAQQEYWSRNKNSVA	QASTRES	QQYHRLPLS	-0.38 / -0.51 / -0.55 / -0.77 / -0.60 / -0.33	1 of 18 (2.22)
KFVQHHDYESRNKNNVA	QASQREQ	QQYHRLPLS	-0.05 / -0.16 / -0.32 / -0.36 / -0.41 / -0.23	1 of 18 (3.24)
KSAYSELYESGNKNSVA	SASTRSS	QQYHRLPLS	0.20 / 0.40 / 0.00 / 0.22 / 0.19 / 0.24	1 of 18 (3.05)
KLSQSWWMESRNPNNVA	HASTRES	QQYHRLPLS	-0.23 / -0.34 / -0.41 / -0.52 / -0.32 / -0.14	1 of 18 (4.71)
KCEISVMQWERNKNSVA	NASTREV	QQYHRLPLS	1.55 / n.d. / 0.94 / n.d. / n.d. / 0.50	0 of 18

A selection of 2 entries from above:

CDR-L1	CDR-L2	CDR-L3	replicates, log10 nM	empty controls
KVSSAFLYEDRNKNSVA	QASQRES	QQYHRLPLS	0.01 / -0.15 / -0.25 / -0.19 / -0.08 / -0.08	3 of 18 (3.24)
KMPQSWWYESRNKQSVA	NASERES	QQYHRLPLS	0.31 / 0.20 / 0.20 / -0.14 / -0.02 / 0.35	1 of 18 (3.01)